Read-outs that look alike come from different tables or passages of the source.

This assay has as its target T1, UGT2B7 (Homo sapiens, UniProt P16662).
T1 sequence (P16662 24-529): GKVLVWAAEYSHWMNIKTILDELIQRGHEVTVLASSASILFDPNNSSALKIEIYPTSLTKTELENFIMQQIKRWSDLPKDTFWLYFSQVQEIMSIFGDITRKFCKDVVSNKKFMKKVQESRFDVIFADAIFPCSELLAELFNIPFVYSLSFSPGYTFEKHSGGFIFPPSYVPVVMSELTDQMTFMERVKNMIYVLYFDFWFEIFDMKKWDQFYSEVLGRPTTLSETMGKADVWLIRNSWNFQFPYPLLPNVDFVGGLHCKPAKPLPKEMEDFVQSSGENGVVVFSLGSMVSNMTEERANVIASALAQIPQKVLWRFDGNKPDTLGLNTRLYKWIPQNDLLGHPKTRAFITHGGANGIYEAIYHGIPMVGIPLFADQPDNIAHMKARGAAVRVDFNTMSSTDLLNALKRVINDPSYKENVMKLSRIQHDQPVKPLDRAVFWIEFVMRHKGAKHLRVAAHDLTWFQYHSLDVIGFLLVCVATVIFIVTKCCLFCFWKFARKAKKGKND
Briefly: Inhibition of ZDV glucuronidation in human liver microsomes (HLM). Background: Liver microsomes are vesicles of endoplasmic reticulum, rich in cytochrome P450 enzymes.

As for “kaempferol-3-O-rutinoside [kaempferol-3-rutinoside]”, the IC50 (read-out: IC50 for inhibition of ZDV glucuronidation in HLM, human liver microsomes, ZDV as UGT2B7 probe substrate, 1% (w/v) BSA) was found to be 18.6 ± 8.62 µM; the IC50 (read-out: concentration showing 50% inhibition of ZDV glucuronidation in HLM (screening), screening at 1 µM, 10 µM and 100 µM) is less than 100 µM.

Source of the values: PMC6222696, “Inhibition of UGT2B7 Enzyme Activity in Human and Rat Liver Microsomes by Herbal Constituents” (Molecules : A Journal of Synthetic Chemistry and Natural …, 2018).
